Data on 1 substance can be found in paper PMC10267138, “A polyamine acetyltransferase regulates the motility and biofilm formation of Acinetobacter baumannii” (Nature Communications, 2023).

The series concerns NCCCN. Nature of the series: purified protein. The note with it: [14C]acetyl-CoA (200 µM) co-substrate, pH 8.5 in Results (Methods say Tris-HCl pH 9), 22 °C.

As for Dpa (Acinetobacter baumannii), the Km (commonly the substrate concentration at which the rate is half of its maximum) was determined as 84.9 µM.
